Values of other authors as cited in patent US9133183B2 (Deciphera Pharmaceuticals, LLC, priority 2013, dated 2015).

Protein sequences, listed by entry. Tags and fused reporters are not part of them. Residues count along the entry.
UniProt P35968, 20-1356 limits assumed: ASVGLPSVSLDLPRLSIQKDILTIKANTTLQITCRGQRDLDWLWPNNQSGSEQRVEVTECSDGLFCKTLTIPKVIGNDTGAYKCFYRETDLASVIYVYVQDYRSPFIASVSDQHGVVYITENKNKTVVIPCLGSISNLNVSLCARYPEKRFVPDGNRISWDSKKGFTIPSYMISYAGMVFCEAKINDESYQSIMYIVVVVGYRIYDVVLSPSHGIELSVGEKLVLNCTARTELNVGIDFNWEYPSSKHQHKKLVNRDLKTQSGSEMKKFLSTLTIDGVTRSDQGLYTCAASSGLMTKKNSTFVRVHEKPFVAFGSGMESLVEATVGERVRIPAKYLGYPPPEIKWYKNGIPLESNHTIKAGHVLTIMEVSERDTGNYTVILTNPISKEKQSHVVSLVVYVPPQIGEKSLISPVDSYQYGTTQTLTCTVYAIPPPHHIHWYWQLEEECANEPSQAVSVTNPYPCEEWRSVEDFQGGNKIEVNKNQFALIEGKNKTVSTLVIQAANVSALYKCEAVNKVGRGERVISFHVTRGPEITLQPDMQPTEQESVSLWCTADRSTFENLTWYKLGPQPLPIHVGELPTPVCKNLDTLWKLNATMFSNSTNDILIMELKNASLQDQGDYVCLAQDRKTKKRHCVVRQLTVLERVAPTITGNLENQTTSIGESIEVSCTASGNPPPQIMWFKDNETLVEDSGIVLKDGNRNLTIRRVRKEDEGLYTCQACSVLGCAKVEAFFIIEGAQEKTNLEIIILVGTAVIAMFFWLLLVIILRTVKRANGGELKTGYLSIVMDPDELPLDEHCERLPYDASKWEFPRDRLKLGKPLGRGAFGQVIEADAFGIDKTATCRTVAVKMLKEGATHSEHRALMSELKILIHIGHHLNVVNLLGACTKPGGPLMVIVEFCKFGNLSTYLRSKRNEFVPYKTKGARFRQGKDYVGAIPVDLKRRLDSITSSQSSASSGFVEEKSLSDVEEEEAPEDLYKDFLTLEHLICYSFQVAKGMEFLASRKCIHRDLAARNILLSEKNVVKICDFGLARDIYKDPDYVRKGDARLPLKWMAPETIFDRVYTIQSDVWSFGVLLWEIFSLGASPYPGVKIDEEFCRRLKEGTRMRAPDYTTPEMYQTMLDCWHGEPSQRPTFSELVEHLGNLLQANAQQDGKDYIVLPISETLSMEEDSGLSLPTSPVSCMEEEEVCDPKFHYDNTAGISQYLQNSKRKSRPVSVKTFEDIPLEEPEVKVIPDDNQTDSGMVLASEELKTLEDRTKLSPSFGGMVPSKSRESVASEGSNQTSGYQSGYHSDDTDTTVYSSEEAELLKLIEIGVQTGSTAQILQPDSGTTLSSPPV
UniProt P08581, 25-1390 limits assumed: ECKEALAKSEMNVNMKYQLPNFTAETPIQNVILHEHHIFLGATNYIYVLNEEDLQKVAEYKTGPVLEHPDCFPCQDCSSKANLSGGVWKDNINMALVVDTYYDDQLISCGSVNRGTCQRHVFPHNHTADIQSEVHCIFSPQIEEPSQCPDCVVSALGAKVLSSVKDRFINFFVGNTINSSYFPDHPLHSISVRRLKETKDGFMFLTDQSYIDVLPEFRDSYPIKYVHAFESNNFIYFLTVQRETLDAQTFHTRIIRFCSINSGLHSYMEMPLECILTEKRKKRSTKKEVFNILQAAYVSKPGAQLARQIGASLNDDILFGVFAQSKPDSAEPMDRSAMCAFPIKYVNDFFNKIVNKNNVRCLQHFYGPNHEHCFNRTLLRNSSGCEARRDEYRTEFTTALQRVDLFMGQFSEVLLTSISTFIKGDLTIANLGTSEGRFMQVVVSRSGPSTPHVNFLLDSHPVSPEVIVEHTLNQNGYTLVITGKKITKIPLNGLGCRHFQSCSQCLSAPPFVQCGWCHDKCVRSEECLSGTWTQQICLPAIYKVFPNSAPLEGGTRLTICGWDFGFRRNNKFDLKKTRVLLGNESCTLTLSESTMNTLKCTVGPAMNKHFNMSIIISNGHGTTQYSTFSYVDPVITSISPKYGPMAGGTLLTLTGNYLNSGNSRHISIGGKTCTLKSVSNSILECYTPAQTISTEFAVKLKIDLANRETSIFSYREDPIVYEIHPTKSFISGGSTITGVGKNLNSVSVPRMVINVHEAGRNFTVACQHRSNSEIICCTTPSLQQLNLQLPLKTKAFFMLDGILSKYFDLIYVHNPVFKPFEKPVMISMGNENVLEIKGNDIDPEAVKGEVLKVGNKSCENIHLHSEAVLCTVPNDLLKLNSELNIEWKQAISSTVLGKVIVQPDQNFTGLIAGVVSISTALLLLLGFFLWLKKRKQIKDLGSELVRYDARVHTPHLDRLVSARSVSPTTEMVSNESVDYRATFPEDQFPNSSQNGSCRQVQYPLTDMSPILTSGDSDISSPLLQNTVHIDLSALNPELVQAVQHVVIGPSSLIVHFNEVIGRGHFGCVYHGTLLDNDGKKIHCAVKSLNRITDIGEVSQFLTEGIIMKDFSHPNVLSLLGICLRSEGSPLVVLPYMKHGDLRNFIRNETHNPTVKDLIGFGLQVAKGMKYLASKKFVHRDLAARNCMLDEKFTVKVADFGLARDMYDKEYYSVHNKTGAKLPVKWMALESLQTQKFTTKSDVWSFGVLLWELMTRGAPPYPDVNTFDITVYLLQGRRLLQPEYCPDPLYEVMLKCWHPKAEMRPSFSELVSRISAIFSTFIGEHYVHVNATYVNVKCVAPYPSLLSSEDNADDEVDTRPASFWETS

Experiments:
KDR kinase = KDR kinase (Homo sapiens (Human), UniProt P35968); details: read-out: KDR IC50; published data from US2008/0255155; cited from earlier work
cMET kinase = cMET kinase (Homo sapiens (Human), UniProt P08581); details: read-out: cMET IC50; published data from US2008/0255155; cited from earlier work

Row | SMILES | IC50 (KDR kinase) [nM] | IC50 (cMET kinase) [nM]
1 | CNC(=O)c1cc(Oc2ccc(NC(=O)N3CCN(c4ccc(F)cc4)C3=O)cc2F)ccn1 | > 1000 | < 1000
2 | CNC(=O)c1cc(Oc2ccc(NC(=O)N3CCN(c4ccccc4)C3=O)cc2F)ccn1 | < 500 | < 500
3 | O=C(Nc1cc(Oc2ccc(NC(=O)N3CCN(c4ccccc4)C3=O)cc2F)ccn1)N1CCCC1 | < 500 | 
